“Also recorded” adds a separate entry of the source. Where two headings read alike, the source gives them in different places.
What was measured:
[1] = rat, in vivo
[2] = rat, in vivo; remark: listed apart in the source
[3] = 1440 min
[4] = in vivo
[5] = solubility and stability in hydrophilic and lipophilic solvents
[6] = rat, in vivo; remark: listed apart in the source
[7] = field cycling at 35° C.
[8] = i.v. 0.04 mmol/kg, Day 0, average
[9] = i.v. 0.04 mmol/kg, Day 1, average
[10] = i.v. 0.04 mmol/kg, Day 3, average
[11] = i.v. 0.04 mmol/kg, Day 7, average

## manganese (III) mesoporphyrin [Mn mesoporphyrin]
i.v. 0.04 mmol/kg, 6 rabbits vs 2 controls
  changes in laboratory values: no significant systematic changes
[8]
  Alk. Phos.: 58
  Amylase: 174.67
  BUN: 26.33
  Bilirubin: 0.23
  CO2: 22.17
  CRT (creatinine): 0.97
  GAP: 13.17
  GOT: 15.83
  GPT: 42
  Glucose: 107.67
  K^+: 5.4
  LDH: 593.83
  Na^+: 137.17
[9]
  Alk. Phos.: 57.33
  Amylase: 222.67
  BUN: 25.17
  Bilirubin: 0.18
  CO2: 21.67
  GAP: 14.5
  GOT: 12.5
  GPT: 48.5
  Glucose: 122.83
  K^+: 5.28
  LDH: 1026
  Na^+: 140.67
[10]
  Alk. Phos.: 58.17
  Amylase: 212.17
  BUN: 26.67
  Bilirubin: 0.37
  CO2: 21.83
  CRT (creatinine): 1.13
  GAP: 15.33
  GOT: 23.33
  GPT: 55.33
  Glucose: 169.33
  K^+: 6.33
  LDH: 414.83
  Na^+: 140.5
[11]
  Alk. Phos.: 49.17
  Amylase: 189
  BUN: 24.33
  Bilirubin: 0.25
  CO2: 22
  CRT (creatinine): 0.98
  GAP: 12.5
  GOT: 11.33
  GPT: 44.5
  Glucose: 139.67
  K^+: 4.73
  LDH: 275
  Na^+: 134.17
Intravenous or oral, normal animals and animals with extensive liver disease
  safety conclusion: can be administered safely at an effective dose
[1]
  biliary excretion / enterohepatic circulation: may be excreted in the bile and undergoes enterohepatic circulation
  excretion with cholestyramine: substantially further increased by administration of cholestyramine
[1]; iv
  time within which the majority of an i.v. dose is excreted in the feces: ≤ 72 h
[2]
  skin discoloration: color of the rats' skin did not change
[3]
  octanol:water partition coefficient (ratio): 25.98:1
[4]
  first pass uptake by the liver: relatively high first pass uptake by the liver
[5]; 10% DMSO in saline, compared with the other two lipid solvents
  change in pH over time in 10% DMSO: smaller change in pH over time; also recorded: minimal pH fluctuation
[5]; K2PO4 buffer and ethanol-containing solutions
  precipitation at physiologic proton concentrations: precipitation was observed
[6]
  time within which compound is largely cleared from the liver and into the feces: ≤ 72 h
  uptake and excretion route: preferentially taken up by the normal liver and excreted through the hepatobiliary system
[7]
  T1 relaxivity (R1): 6 L (mmol/sec^-1)

Reference: patent US5169944A, “Methods and compositions for the enteral administration of hepatobiliary MRI contrast agents” (Board of Regents of the University of Washington, priority 1991, dated 1992)
